# Measured affinities in a library of Ab-14 heavy chain variants

Target peptide (SARS-CoV-2 spike, HR2 region): PDVDLGDISGINAS

Ab-14 is the parent antibody, in scFv form: VH, then a (GGGGS)3 linker, then VL. The light chain is unchanged in all variants.
VH: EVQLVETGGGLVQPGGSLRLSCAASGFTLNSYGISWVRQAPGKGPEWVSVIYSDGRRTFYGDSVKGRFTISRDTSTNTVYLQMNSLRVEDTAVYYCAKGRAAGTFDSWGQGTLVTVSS
VL: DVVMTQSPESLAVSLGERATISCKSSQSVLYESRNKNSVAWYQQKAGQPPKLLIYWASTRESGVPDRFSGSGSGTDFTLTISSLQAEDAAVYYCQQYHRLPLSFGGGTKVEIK

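The parent was found by panning a naive human phage display library on the peptide. Variants in AAYL49 differ from the parent at up to three CDR positions; double and triple changes were sampled at random. The scFvs were displayed on barcoded MATa yeast, the peptide on MATalpha yeast. Pairs that bind mate more often; barcode pairs of the diploids are counted by sequencing. A regression on co-assayed BCL2-family reference pairs converts the normalised counts of each replicate to an apparent Kd. There are three technical replicates.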

Each variant is given by its three heavy chain CDRs, as the data file delimits them; those of the parent are GFTLNSYGIS, VIYSDGRRTFYGDSVK, GRAAGTFDS. This list gathers variants with a substitution at G61 (VH, numbered from residue 1). Values are log10 of the apparent Kd in nM; lower means stronger binding. Replicates are averaged; those with no signal do not enter the mean. An entry "nd" has no value in the source: the pair was not observed among the diploids in that replicate. This suggests poor binding but is not conclusive. In this assay the parent's reference entry averaged 0.65; its copy inside this library read 4.11 (one replicate of three). Nonspecific signal, from three strains lacking the peptide, appeared in 15% of pairings of library AAYL49, centred on 4.06 (5% of these signals below 2.83); values are not corrected for it. The control count says in how many pairings with the empty strains this scFv gave a signal.

GFTLNSYGIS, VIYSDGRRTFYWTSVK, GRAAGTKDS: nd, nd, nd (controls 2 of 9).
GFTLNSYGIE, VIYSDGRRTPYADSVK, GRAAGTFDS: nd, nd, nd (controls 0 of 9).
KFTLNSYGIS, VIYSDGRRTFYVDSVK, GRAAGTFDS: 4.28, 3.32, 4.39 (mean 4.00; controls 0 of 9).
GFTLNSYGIS, VIYSDDRRTFYMDSVK, GRAAGTFDS: nd, nd, nd (controls 0 of 9).
GFGLNSNGIS, VIYSDGRRTFYTDSVK, GRAAGTFDS: 2.97, 2.04, 3.35 (mean 2.79; controls 1 of 9).
GFTLNWYGIA, VIYSDGRRTFYSDSVK, GRAAGTFDS: nd, nd, nd (controls 1 of 9).
GFTLNSYGIS, VIGSDGRRTFYVDSVK, GRAAGTFDS: nd, nd, nd (controls 0 of 9).
GFTINSYGIS, VIYSDGRRTFYEDSVK, GRASGTFDS: 0.24, 0.54, 0.42 (mean 0.40; controls 0 of 9).
GHTLNSYGIS, FIYSDGRRTFYYDSVK, GRAAGTFDS: nd, nd, nd (controls 0 of 9).
GFQLNSYGIS, VIYSDGTRTFYMDSVK, GRAAGTFDS: 1.87, 1.75, 2.01 (mean 1.88; controls 4 of 9).
GFTLNSYGIS, VIYSDGYRTMYPDSVK, GRAAGTFDS: 3.63, 2.39, 3.22 (mean 3.08; controls 3 of 9).
GETINSYGIS, VIYSDGRRTFYNDSVK, GRAAGTFDS: 2.37, 2.34, 2.56 (mean 2.42; controls 3 of 9).
GFTLNSYGIS, VIYSDGRRTFYMDTVK, GRRAGTFDS: 2.05, 2.70, 2.11 (mean 2.29; controls 0 of 9).
GFTLNSYGIS, VIYSDGLRTFYDDSVA, GRAAGTFDS: 0.42, 0.66, 0.54 (mean 0.54; controls 4 of 9).
GFTLNSYGIS, VIYSDGRRTKYKDSVK, MRAAGTFDS: nd, 5.48, 3.40 (mean 4.44; controls 5 of 9).
GITLNSYGIS, VIYSDGRRTFYFDSVK, GRAAGTFDS: nd, nd, nd (controls 1 of 9).
GFTLNSYGIS, PIYSDGRRTFYRDSVK, GRQAGTFDS: 4.19, 5.01, nd (mean 4.60; controls 2 of 9).
GFTANSDGIS, VIYSDGRRTFYVDSVK, GRAAGTFDS: nd, 4.04, nd (controls 0 of 9).
GFTLNSYGIS, VIYSDGRRVMYLDSVK, GRAAGTFDS: 1.19, 1.23, 1.44 (mean 1.29; controls 0 of 9).
GHTLNSYGIS, VIYGDGRRTFYYDSVK, GRAAGTFDS: nd, 3.59, 4.81 (mean 4.20; controls 3 of 9).
GFLLNSYGIS, VIYSDGRRTFYYYSVK, GRAAGTFDS: nd, nd, nd (controls 1 of 9).
GFTLNSYGIW, VIYSDGRRTFYRDSVK, GRAAGTFDS: nd, nd, nd (controls 0 of 9).
GFTLNSYGIS, VVYSDGRRTFCEDSVK, GRAAGTFDS: 2.94, nd, 2.78 (mean 2.86; controls 2 of 9).
GFTLNSYGIS, VIYSDGRRYFYHDSMK, GRAAGTFDS: nd, nd, nd (controls 0 of 9).
GFTLNSYGIF, VIYSDGRRTFYYDSVK, GTAAGTFDS: nd, nd, nd (controls 0 of 9).
GFTLNSYGSS, VIYSDGTRTFYYDSVK, GRAAGTFDS: nd, nd, nd (controls 0 of 9).
MFTLNSYGIS, VIYSDGRRQFYQDSVK, GRAAGTFDS: nd, nd, nd (controls 0 of 9).
GFTLNSYGIS, VIYSDGRRTFYMDSVK, GRAAGTFDS: 1.79, 1.31, 1.31 (mean 1.47; controls 0 of 9).
GFTLNSYGIS, VVYSDGRRTFYNDSVK, GRAAGTFDS: 3.43, 3.88, 4.16 (mean 3.82; controls 3 of 9).
GFTLTSYGIS, VIYSDGRRTFYQDSVK, GRAAGTFDS: 0.43, 0.93, 0.48 (mean 0.62; controls 0 of 9).
GFTLNSYNIS, VIYSDGMRTFYIDSVK, GRAAGTFDS: 0.82, 0.80, 1.09 (mean 0.90; controls 1 of 9).
GNTLNSYGIS, VIYSDGRRTHYSDSVK, GRAAGTFDS: 1.24, 1.35, 1.38 (mean 1.32; controls 4 of 9).
GFTLNPYGIS, VIYSDGRRCFYTDSVK, GRAAGTFDS: nd, nd, nd (controls 0 of 9).
GFTLNSYDIS, VIYSDGRRTFYFDSVK, GRAAGTFDT: nd, nd, nd (controls 0 of 9).
GFTLNAYGIS, VIYSDDRRTFYQDSVK, GRAAGTFDS: nd, nd, 3.69 (controls 2 of 9).
GFTLNSYGIS, VIYSDGGRMFYEDSVK, GRAAGTFDS: 2.85, 2.75, 3.11 (mean 2.90; controls 1 of 9).
GFTLNSYGIA, VIYSDGRRTFYMDSVK, GRAAGTFDS: nd, nd, nd (controls 0 of 9).

The closing 3 entries, repeated:

| CDR-H1 | CDR-H2 | CDR-H3 | replicates, log10 nM | mean, log10 nM | signal with controls |
|---|---|---|---|---|---|
| GFTLNAYGIS | VIYSDDRRTFYQDSVK | GRAAGTFDS | nd, nd, 3.69 | 3.69 | 2/9 |
| GFTLNSYGIS | VIYSDGGRMFYEDSVK | GRAAGTFDS | 2.85, 2.75, 3.11 | 2.90 | 1/9 |
| GFTLNSYGIA | VIYSDGRRTFYMDSVK | GRAAGTFDS | nd, nd, nd | nd | 0/9 |

From the AlphaSeq antibody data of Engelhart et al. 2022 (doi:10.1038/s41597-022-01779-4), copy in the FLAb collection.